Permeability data for macrocyclic peptides

Source: CycPeptMPDB (Li et al. 2023), which took these values from Kelly et al. 2021, doi:10.1021/jacs.0c06115.

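The data file gives no further conditions (lipid, pH, time, direction or concentration), and values from different papers need not be comparable. The list need not hold all peptides of the study. Entries at the database's floor value (log10 P of -10) are not listed.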

PAMPA measures passive passage through an artificial lipid membrane.
Permeability is in 10^-6 cm/s, converted from the database's log10 values; higher is more permeable.

| SMILES | PAMPA (10^-6 cm/s) |
|---|---|
| CC(=O)N1CCC[C@@H]1C(=O)N(C)[C@@H](CC(C)C)C(=O)N[C@@H]1C(=O)N[C@H](CC(C)C)C(=O)N[C@@H](CC(C)C)C(=O)N(C)[C@H](CC(C)C)C(=O)N(C)[C@@H](C)C(=O)N[C@H](CC(C)C)C(=O)N2CCC[C@H]2C(=O)O[C@@H]1C | 4.3 |
| CC(=O)N[C@@H]1C(=O)N2CCC[C@H]2C(=O)N(C)[C@H](CC(C)C)C(=O)N(C)[C@H](CC(C)C)C(=O)N[C@H](CC(C)C)C(=O)N(C)[C@@H](CC(C)C)C(=O)N[C@@H](C)C(=O)N[C@@H](CC(C)C)C(=O)N2CCC[C@@H]2C(=O)O[C@@H]1C | 0.34 |
| CC(=O)N1CCC[C@@H]1C(=O)N(C)[C@@H](CC(C)C)C(=O)N[C@@H]1C(=O)N(C)[C@@H](CC(C)C)C(=O)N(C)[C@H](CC(C)C)C(=O)N[C@H](CC(C)C)C(=O)N(C)[C@@H](C)C(=O)N[C@@H](CC(C)C)C(=O)N2CCC[C@H]2C(=O)O[C@@H]1C | 1.5 |
| CC(=O)N1CCC[C@H]1C(=O)N(C)[C@@H](CC(C)C)C(=O)N[C@@H]1C(=O)N[C@@H](CC(C)C)C(=O)N(C)[C@H](CC(C)C)C(=O)N(C)[C@@H](CC(C)C)C(=O)N(C)[C@@H](C)C(=O)N[C@H](CC(C)C)C(=O)N2CCC[C@@H]2C(=O)O[C@@H]1C | 2.6 |
| CC(=O)N1CCC[C@@H]1C(=O)N(C)[C@H](CC(C)C)C(=O)N[C@@H]1C(=O)N[C@H](CC(C)C)C(=O)N[C@@H](CC(C)C)C(=O)N[C@@H](CC(C)C)C(=O)N(C)[C@@H](C)C(=O)N[C@H](CC(C)C)C(=O)N2CCC[C@@H]2C(=O)O[C@@H]1C | 0.45 |
| CC(=O)N1CCC[C@@H]1C(=O)N(C)[C@H](CC(C)C)C(=O)N[C@@H]1C(=O)N[C@H](CC(C)C)C(=O)N[C@@H](CC(C)C)C(=O)N[C@@H](CC(C)C)C(=O)N(C)[C@H](C)C(=O)N[C@@H](CC(C)C)C(=O)N2CCC[C@H]2C(=O)O[C@@H]1C | 1.2 |
| CC(=O)N1CCC[C@H]1C(=O)N(C)[C@@H](CC(C)C)C(=O)N[C@@H]1C(=O)N(C)[C@@H](CC(C)C)C(=O)N[C@@H](CC(C)C)C(=O)N(C)[C@@H](CC(C)C)C(=O)N(C)[C@@H](C)C(=O)N[C@H](CC(C)C)C(=O)N2CCC[C@H]2C(=O)O[C@@H]1C | 0.083 |
| CC(=O)N1CCC[C@@H]1C(=O)N(C)[C@H](CC(C)C)C(=O)N[C@@H]1C(=O)N[C@@H](CC(C)C)C(=O)N[C@@H](CC(C)C)C(=O)N(C)[C@H](CC(C)C)C(=O)N(C)[C@@H](C)C(=O)N[C@@H](CC(C)C)C(=O)N2CCC[C@H]2C(=O)O[C@@H]1C | 0.85 |
| CC(=O)N1CCC[C@H]1C(=O)N[C@@H]1C(=O)N[C@H](CC(C)C)C(=O)N[C@H](CC(C)C)C(=O)N[C@H](CC(C)C)C(=O)N(C)[C@H](CC(C)C)C(=O)N[C@H](C)C(=O)N[C@@H](CC(C)C)C(=O)N2CCC[C@@H]2C(=O)O[C@@H]1C | 1.8 |
| CC(=O)N1CCC[C@H]1C(=O)N(C)[C@@H](CC(C)C)C(=O)N[C@@H]1C(=O)N(C)[C@H](CC(C)C)C(=O)N[C@H](CC(C)C)C(=O)N[C@@H](CC(C)C)C(=O)N(C)[C@H](C)C(=O)N[C@@H](CC(C)C)C(=O)N2CCC[C@H]2C(=O)O[C@@H]1C | 0.79 |
| CC(=O)N1CCC[C@@H]1C(=O)N(C)[C@H](CC(C)C)C(=O)N[C@@H]1C(=O)N[C@H](CC(C)C)C(=O)N[C@@H](CC(C)C)C(=O)N[C@@H](CC(C)C)C(=O)N[C@@H](C)C(=O)N[C@H](CC(C)C)C(=O)N2CCC[C@H]2C(=O)O[C@@H]1C | 0.079 |
| CC(=O)N1CCC[C@@H]1C(=O)N(C)[C@@H](CC(C)C)C(=O)N[C@@H]1C(=O)N(C)[C@H](CC(C)C)C(=O)N[C@H](CC(C)C)C(=O)N(C)[C@H](CC(C)C)C(=O)N[C@@H](C)C(=O)N[C@@H](CC(C)C)C(=O)N2CCC[C@H]2C(=O)O[C@@H]1C | 1.5 |

The first 2 entries again:

| SMILES | PAMPA (10^-6 cm/s) |
|---|---|
| CC(=O)N1CCC[C@@H]1C(=O)N(C)[C@@H](CC(C)C)C(=O)N[C@@H]1C(=O)N[C@H](CC(C)C)C(=O)N[C@@H](CC(C)C)C(=O)N(C)[C@H](CC(C)C)C(=O)N(C)[C@@H](C)C(=O)N[C@H](CC(C)C)C(=O)N2CCC[C@H]2C(=O)O[C@@H]1C | 4.3 |
| CC(=O)N[C@@H]1C(=O)N2CCC[C@H]2C(=O)N(C)[C@H](CC(C)C)C(=O)N(C)[C@H](CC(C)C)C(=O)N[C@H](CC(C)C)C(=O)N(C)[C@@H](CC(C)C)C(=O)N[C@@H](C)C(=O)N[C@@H](CC(C)C)C(=O)N2CCC[C@@H]2C(=O)O[C@@H]1C | 0.34 |